## Ab-14 heavy chain CDR variants: yeast mating affinities

Data: MIT Lincoln Laboratory AlphaSeq set, Li et al. 2023, doi:10.1038/s41467-023-39022-2, as distributed in FLAb.

Target: peptide PDVDLGDISGINAS, taken from heptad repeat 2 (HR2) of SARS-CoV-2 spike.

Ab-14 is the parent antibody, in scFv form: VH, then three GGGGS repeats, then VL. The light chain is unchanged in all variants.
VH: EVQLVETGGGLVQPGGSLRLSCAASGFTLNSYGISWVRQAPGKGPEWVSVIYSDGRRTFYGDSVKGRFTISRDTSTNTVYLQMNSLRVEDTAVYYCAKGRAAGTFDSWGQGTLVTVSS
VL: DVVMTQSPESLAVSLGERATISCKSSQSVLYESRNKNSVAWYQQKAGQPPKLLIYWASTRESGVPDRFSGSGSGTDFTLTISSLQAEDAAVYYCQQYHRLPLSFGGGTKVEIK

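The parent was found by panning a naive human phage display library on the peptide. The variants were designed computationally from a first round of random CDR variants and then made and measured. Their group label is 14H_Rand (Rand: our label for a block that the file lists under HC and that is probably the random mutants of the ten best first-round binders). The scFvs were displayed on barcoded MATa yeast, the peptide on MATalpha yeast. The frequency of each diploid, read from paired DNA barcodes, reflects how well the two displayed proteins bind. The ratio of observed to expected reads was calibrated, replicate by replicate, on BCL2-family standards whose Kd was known from biolayer interferometry. Mating was done six times.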

Changes read parent residue, position, new residue, counted from the first residue of the VH shown.
Affinities are written as log10 Kd with Kd in nM; a lower number is a better binder.
"nd" means that the variant was in the library but no mating with the target was seen in that replicate; the authors take this as a sign of poor binding, and no number exists.
Empty control strains, which show no peptide, gave a signal in 1% of pairings with all heavy chain designs; the median was 2.08 and 95% of these signals were weaker than 0.84. No background was subtracted. For each scFv, signals with the empty controls are counted beside the result.
The authors averaged sequences with at least three values out of six and counted those with two or fewer as poor binders.
Of ten entries with the parent sequence, four were seen in most replicates (averages 0.34 to 2.37), three in one and three in none, so single entries are noisy.
The range of this assay differs from that of the first round, and the authors advise against merging the two.

With T28D S35I S63P T104W D106N the result was nd, nd, nd, nd, nd, nd (controls 0 of 18).
With I34Q S53A T58G T104L F105N D106K the result was nd, nd, nd, nd, nd, nd (controls 0 of 18).
With G61D G99S R100Q A101L the result was 1.30, nd, 1.16, 2.29, nd, 2.29 (controls 0 of 18).
With S53H G61S A102G the result was nd, nd, nd, 1.92, 3.18, 1.85 (controls 0 of 18).
With Y32P G61S A102G T104K the result was nd, nd, nd, nd, nd, nd (controls 0 of 18).
With L29F S31E S53G G103V S107Q the result was nd, nd, nd, nd, nd, nd (controls 0 of 18).
With T28N S31D G33T R56N F59Q G61I D62W the result was nd, nd, 1.96, nd, 1.94, nd (controls 2 of 18).
With T28D R56N T104W D106N the result was nd, nd, nd, nd, nd, nd (controls 0 of 18).
With F27S D54G G61S S63E V64A A102G the result was nd, nd, nd, 1.27, nd, nd (controls 0 of 18).
With N30Y S31Q Y32K I34W Y52C G61S T104F the result was 1.73, nd, nd, nd, nd, nd (controls 0 of 18).
With S31D T58L G61L G103L D106I the result was nd, nd, nd, nd, nd, nd (controls 0 of 18).
With S31E A102G G103V S107W the result was nd, nd, nd, nd, nd, nd (controls 1 of 18).
With S31Q G61S G103W T104F the result was nd, 2.10, 1.80, 3.08, nd, nd (controls 0 of 18).
With S31R S53F G61S A102G the result was nd, nd, 1.28, nd, nd, nd (controls 0 of 18).
With T28D G99T T104W F105N D106N the result was nd, nd, nd, nd, nd, nd (controls 1 of 18).
With N30D Y32L F105A D106L the result was nd, nd, nd, nd, nd, nd (controls 0 of 18).
With F27N N30D A102T F105A D106L the result was nd, nd, nd, nd, nd, nd (controls 0 of 18).
With G26T I34L S35R S53A G61W F105C D106K the result was nd, nd, nd, nd, nd, nd (controls 0 of 18).
With G26I R56E G61D D62P R100Q A101F the result was nd, nd, nd, nd, nd, nd (controls 0 of 18).
With N30D T104Y F105A D106L the result was nd, nd, nd, nd, nd, nd (controls 0 of 18).
With S31D I34A S53H G55F G61A G103L F105I D106I the result was nd, nd, nd, nd, nd, nd (controls 0 of 18).
With Y52K G61D R100Q A101L the result was nd, nd, nd, nd, nd, nd (controls 0 of 18).
With T28R Y52G T104W D106N the result was nd, 0.87, nd, nd, nd, nd (controls 0 of 18).
With S31Q Y52N T58D G61S T104F the result was nd, nd, nd, nd, nd, nd (controls 1 of 18).
With S31D F59Q G61E A102G the result was nd, nd, nd, nd, nd, nd (controls 0 of 18).
With G26Y G61S A102G the result was nd, nd, nd, nd, nd, nd (controls 0 of 18).
With S31E Y52A G103V S107Q the result was nd, nd, nd, nd, nd, nd (controls 0 of 18).
With N30D S31C G33E I34Q I51E R56G A102Y F105A D106L the result was nd, nd, nd, nd, nd, nd (controls 0 of 18).
With S53A G99Y R100Q F105N D106K the result was nd, nd, nd, nd, nd, nd (controls 0 of 18).
With G33H G55N G61D R100Q A101L the result was nd, nd, nd, nd, nd, nd (controls 0 of 18).
With S31E I34A G55T D62R G103V S107Q the result was nd, nd, nd, nd, nd, nd (controls 0 of 18).
With S53A V64T F105N D106K the result was nd, nd, nd, nd, nd, 2.51 (controls 0 of 18).
With S31D T58M F59Q G61I T104L the result was nd, nd, nd, nd, nd, nd (controls 0 of 18).
With T28D G61S T104W F105G D106N the result was nd, nd, nd, nd, nd, nd (controls 0 of 18).
With T28I S31D S53Y F59N S63I G99P G103L D106I the result was nd, nd, nd, nd, nd, nd (controls 0 of 18).
With S31E F59E D62E G103V S107Q the result was nd, nd, nd, nd, nd, nd (controls 0 of 18).
With N30D S31A F105A D106L the result was nd, nd, nd, nd, nd, nd (controls 1 of 18).
With T28A R57P G61S A102G the result was nd, nd, nd, nd, nd, nd (controls 0 of 18).
With S53A Y60I G61A A101F F105Q D106K the result was nd, nd, nd, nd, nd, nd (controls 0 of 18).
With S31Q S53T G61S T104F the result was nd, nd, nd, nd, nd, 2.23 (controls 0 of 18).

For reference, 4 entries of the list once more:

changes	log10 Kd, replicates	control signals
L29F S31E S53G G103V S107Q	nd, nd, nd, nd, nd, nd	0/18
Y52K G61D R100Q A101L	nd, nd, nd, nd, nd, nd	0/18
I34Q S53A T58G T104L F105N D106K	nd, nd, nd, nd, nd, nd	0/18
T28D G61S T104W F105G D106N	nd, nd, nd, nd, nd, nd	0/18